What all share (format): cell-based, rat
In test [1] the test system is coronary (left anterior descending artery, LAD) artery segments. Kind of test: Vasodilation of isolated precontracted artery segments (wire myograph), coronary artery. The note with it: coronary versus mesenteric and basilar artery. The protocol: Basilar, mesenteric and coronary arteries were isolated immediately and ring artery segments were stored in ice cold PSS buffer before being mounted on 40 μm stainless steel wires in a Multi Wire Myograph System organ bath (model 610M, Danish Myo Technology A/S, Denmark). Each segment was immersed in 37° C. PSS solution, continuously aerated with 5% CO2/95% O2 to maintain pH 7.4. […] One wire was connected to a micrometer screw enabling adjustments of the distance between the wires. […]
Measurements of vascular tone were recorded using the data acquisition hardware Power Lab unit (ADInstruments). […]
Vasodilation is expressed as percentage of the remaining precontraction tone induced by PGF2α. […] Active tension was determined by subtracting the passive tension (resting tension in PSS) from the total tension (during KPSS or PGF2α challenge).
All pharmacological data were analysed using Prism 7.02 (GraphPad Software Inc., San Diego, CA) and given as mean±S.E.M. For all analyses, the data were unweighted and each y value (mean of replicates for each individual experiment) was considered an individual point. […]
Differences in pEC50 and Emax values were analysed with paired (animal) t-tests and considered significant as P<0.05. […]

Test [2] has as its system mesenteric artery segments. Kind of test: CGRP-agonist sensibilization: repeated dose-response and artery culture, mesenteric artery. As to conditions: isolated mesenteric artery. The protocol:
(§1) All experiments were conducted as described in Example 2 with the following modifications: • Effect of repeated dose-response: A second cumulative dose-response curves were conducted 90-120 minutes after completion of the first COMPOUND I or CGRP dose-response curve. • Effect of artery culture: After dissection, artery segments were cultured (DMEM supplemented with penicillin and streptomycin) for 24 h at 37° C.±Compound I (10 nM) for 24 h. Artery segments were divided for comparison of the effect of Compound I and CGRP in fresh and cultured artery segments, respectively.

In test [3] the test system is coronary LAD artery segments. Kind of test: CGRP-agonist sensibilization: repeated dose-response and artery culture, coronary LAD. As to conditions: second dose-response curve 90-120 minutes after the first. The protocol: as §1

Consider “CGRP: human αCGRP (Bachem H-1470), native calcitonin gene-related peptide, vasoactive substance [reference compound]”, for which the “CGRP potency lower in coronary artery than mesenteric and basilar” value in test [1] was 10 fold. Also, the “CGRP-agonist-induced CGRP sensibilization (in words)” value in test [2] is “no CGRP-agonist-induced CGRP sensibilization”. Besides, the “Effect of repeated cumulative stimulation on potency (in words)” value in test [3] is given as “shift in potency towards significant sensitization”.

The values are drawn from patent US11890324B2, “Compounds for use in inducing myocardial perfusion recovery” (Epoqe Pharma ApS, priority 2018, dated 2024).
